Source: ChEMBL document CHEMBL6120956, “Discovery of a Potent, Orally Active, and Long-Lasting P2X7 Receptor Antagonist as a Preclinical Candidate for Delaying the Progression of Chronic Kidney Disease” (J Med Chem, 2024)
The source made the active and inactive calls. The rule behind the calls is not given here.

Legend:
Type in all cases: cell-based
[1] = biological target: T1, P2X purinoceptor 7 (Mus musculus) (UniProt Q9Z1M0); experiment: Antagonist activity against mouse P2X7 receptor expressed in HEK293 cells assessed as inhibition of ATP-induced PI accumulation by measuring inhibition of red fluorescence at 1 uM by fluorescence microscopy analysis
T1 sequence (whole entry): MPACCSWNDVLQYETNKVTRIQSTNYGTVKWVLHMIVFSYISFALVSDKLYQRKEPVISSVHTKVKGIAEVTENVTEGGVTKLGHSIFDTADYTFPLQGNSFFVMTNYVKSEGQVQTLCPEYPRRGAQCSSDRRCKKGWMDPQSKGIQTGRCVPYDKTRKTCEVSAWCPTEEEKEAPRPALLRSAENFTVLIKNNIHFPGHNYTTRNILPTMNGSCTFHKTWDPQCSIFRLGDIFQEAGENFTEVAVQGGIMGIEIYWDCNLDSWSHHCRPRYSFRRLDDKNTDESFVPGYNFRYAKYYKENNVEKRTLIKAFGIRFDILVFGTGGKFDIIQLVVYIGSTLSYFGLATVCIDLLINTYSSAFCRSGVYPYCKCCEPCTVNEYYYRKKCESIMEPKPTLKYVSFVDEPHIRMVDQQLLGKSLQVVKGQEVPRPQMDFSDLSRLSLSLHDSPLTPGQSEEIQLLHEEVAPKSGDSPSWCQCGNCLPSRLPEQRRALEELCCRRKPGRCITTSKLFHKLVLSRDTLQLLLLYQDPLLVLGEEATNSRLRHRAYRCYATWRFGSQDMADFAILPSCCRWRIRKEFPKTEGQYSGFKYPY

[2] = biological target: T1, P2X purinoceptor 7 (Mus musculus); experiment: Non-competitive antagonist activity against mouse P2X7 receptor expressed in HEK293 cells assessed as non-competitive inhibition of ATP-induced PI accumulation
[3] = biological target: T1, P2X purinoceptor 7 (Mus musculus); experiment: Antagonist activity against mouse P2X7 receptor expressed in HEK293 cells assessed as decrease in LPS/ATP-induced mitochondrial superoxide anion radical increase at 1 uM by MitoSOX (red) assay
[4] = biological target: T1, P2X purinoceptor 7 (Mus musculus); experiment: Antagonist activity against mouse P2X7 receptor expressed in HEK293 cells assessed as protection of ATP-induced mitochondrial membrane damage at 1 uM by MitoTracker (red) assay

## C[C@H](NC(=O)c1cnc(-c2ccc(S(C)(=O)=O)cc2)s1)c1cn(-c2cc(C(F)(F)F)ccn2)nn1
[1]
  inhibition: Active
[2]
  Activity: Active; Concentration Dependent Rightward Shift And Reduced Maximum Response Observed
[3]
  Activity: Active
[4]
  Activity: Active
